Legend:
[1] = biological target: full length monkey MSR1 on HEK293.mfMSR1 cells (Macaca fascicularis); assay: ECL cell binding, HEK293.mfMSR1 cells
[2] = biological target: full length human MSR1 with a C-terminal Myc tag on HEK293.Myc.hMSR1 cells (human) (UniProt P21757); assay: ECL cell binding, HEK293.Myc.hMSR1 cells
[3] = biological target: mouse MSR1 on RAW264.7 cells (mouse) (UniProt P30204); assay: flow cytometry, RAW264.7 cells, 10 ug/mL
[4] = biological target: endogenously expressed human MSR1 on PMA-treated THP-1 cells (human) (UniProt P21757); assay: ECL cell binding, PMA-treated THP-1 cells
[5] = biological target: human MSR1 extracellular domain expressed with a N-terminal nonahistidine tag (His9-hMSR1; R&D Systems, Cat #2708-MS) (human) (UniProt P21757); assay: competition ELISA; 100 nM antibody, competitor Ac-LDL, plate-coated His9-hMSR1
[6] = biological target: human MSR1 extracellular domain expressed with a N-terminal nonahistidine tag (His9-hMSR1; R&D Systems, Cat #2708-MS) (human) (UniProt P21757); assay: competition ELISA; 1 µM antibody, competitor 10 nM Ox-LDL, plate-coated His9-hMSR1
[7] = biological target: human MSR1 extracellular domain expressed with a N-terminal nonahistidine tag (His9-hMSR1; R&D Systems, Cat #2708-MS) (human) (UniProt P21757); assay: competition ELISA; 300 nM antibody, competitor biot-AGE-BSA, plate-coated His9-hMSR1

Chains of the proteins cited; added tags and fusions are not shown. Lines headed by an entry give the natural chain unless they say otherwise; changes in a name come on top. A line that says so, or that is headed by a name, gives the form on record, which may keep a tag or linker.
UniProt P21757, other isoform, or with tags, fused parts or gaps: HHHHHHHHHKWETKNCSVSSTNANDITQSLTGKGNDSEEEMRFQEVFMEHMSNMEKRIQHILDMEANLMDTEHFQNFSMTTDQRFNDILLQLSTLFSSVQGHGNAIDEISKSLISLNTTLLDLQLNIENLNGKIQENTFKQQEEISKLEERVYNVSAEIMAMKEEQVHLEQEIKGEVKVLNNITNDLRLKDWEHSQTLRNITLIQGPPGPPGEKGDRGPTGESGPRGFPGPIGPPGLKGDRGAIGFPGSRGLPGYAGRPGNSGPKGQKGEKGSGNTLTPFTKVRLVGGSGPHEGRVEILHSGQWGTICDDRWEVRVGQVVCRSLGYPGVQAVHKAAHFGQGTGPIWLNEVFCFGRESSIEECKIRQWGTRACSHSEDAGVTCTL
UniProt P30204: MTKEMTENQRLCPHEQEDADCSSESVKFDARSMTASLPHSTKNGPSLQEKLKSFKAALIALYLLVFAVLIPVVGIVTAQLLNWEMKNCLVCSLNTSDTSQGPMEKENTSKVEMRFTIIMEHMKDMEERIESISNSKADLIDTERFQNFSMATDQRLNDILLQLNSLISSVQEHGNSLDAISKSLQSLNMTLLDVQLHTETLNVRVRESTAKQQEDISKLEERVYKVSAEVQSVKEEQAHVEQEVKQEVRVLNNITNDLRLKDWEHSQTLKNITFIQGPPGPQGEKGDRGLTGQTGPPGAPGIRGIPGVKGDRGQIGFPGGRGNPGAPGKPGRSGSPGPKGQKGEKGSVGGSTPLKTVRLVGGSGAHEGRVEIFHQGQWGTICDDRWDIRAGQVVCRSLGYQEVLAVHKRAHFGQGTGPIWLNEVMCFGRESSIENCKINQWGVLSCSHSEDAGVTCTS

ratio of 11 nM antibody binding signal (RLU) to isotype control [1]: 49 | ratio of 11 nM antibody binding signal (RLU) to isotype control [2]: 63 | MFI [3]: 3820 | S/N [3]: 1 | ratio of 11 nM antibody binding signal (RLU) to isotype control [4]: 54 | % Blocking [5]: -51% | % Blocking [6]: -31% | % Blocking [7]: -11%
B1: H1H27751P-N297Q (antibody, human IgG1, V domains shown)
VH: EVQLVESGGGLVQPGGSLRLSCAASGFTFSNYAMHWVRQAPGKGLEYVSAISSNGGSTYYADSVKGRITISRDNSKNTLYLQMGSLRAEDMAVYYCARGRPYYYYFGMDVWGQGTTVTVSS
VL: DIVMTQTPVSSPVTLGQPASISCRSSQSLVHSDGNTYLSWFQQRPGQPPRLLIYKISNRFSGVPDRFSGSGAGTDFTLKISRVEAEDVGVYYCMQATQFPLNFGGGTKVEIKR
